# Results taken from patent publication US20110129868A1, “CELL CAPABLE OF REPLICATING NOVEL HCV REPLICON, CELL CAPABLE OF REPLICATING FULL-LENGTH HCV RNA, AND USE OF THOSE CELLS” (priority 2008, published 2011).
# Experiments:
# Type in all cases: cell-based, HCV-O strain (genotype 1b)
# Conditions in all cases: luciferase activity after 72 hours
# [1] = tested on: full-length HCV RNA replication in OR6 cells
# Procedure: (§1) Renilla luciferase was quantified by collecting cells using a Renilla Luciferase Assay System (Promega) according to the manufacturer's experiment protocol.
# Drugs reported to have anti-HCV activities were evaluated using an ORL8- or ORL11-cell assay system. An OR6-cell assay system was used as a control. Note that, depending on compounds, use of DMSO or ethanol as a solvent is needed; however, it has been confirmed that the assay system is not affected as long as the DMSO concentration is 0.5% or less, and that the ethanol concentration is 0.2 to 0.25% (data not presented).
# IFN-α (0, 0.1, 0.2, 0.5, 1, 2, 10 IU/ml: Sigma, I2396) was added to each cell line, and luciferase activity after 72 hours was measured. By analysis, the EC50 values of the ORL8, ORL11, and OR6 cells were calculated as 0.13 IU/ml, 0.30 IU/ml, and 0.40 IU/ml, respectively. Values close to these were obtained in the same experiment repeated three times, yielding good reproducibility. The ORL8 cells had the highest sensitivity for IFN-α, followed by ORL11 cells and OR6 cells.
# [2] = tested on: full-length HCV RNA replication in ORL8 cells
# Procedure: as §1
# (§2) Luciferase activity of each cell line was then measured at hour 24, 48, and 72. […] SD values were calculated based on the results from three samples at each point. […]
# [3] = tested on: full-length HCV RNA replication in ORL11 cells
# Procedure: as §1, §2
substance,measurement,setting,value
"IFN-β: interferon beta, pharmaceutical agent having an anti-HCV action",EC50,[1],0.35 IU/ml
same,EC50 (50% effective drug concentration),[2],0.10 IU/ml
same,EC50 (50% effective drug concentration),[3],0.18 IU/ml
